# Measurements published in patent US4153709A, “N-Heterocyclic ureas as immune regulants” (Eli Lilly and Company, priority 1977, dated 1979).
# Legend:
# [1] = tested on: Salmonella typhimurium G46 missense histidine-auxotroph; assay: Qualitative in vitro prescreen for mutagenicity, G46 indicator (Table 22); conditions: 200 mcg disc
# [2] = tested on: Salmonella typhimurium G46 missense histidine-auxotroph; assay: Host mediated assay (in vivo mutagenicity), G46 indicator (Table 22); design: species or system Salmonella typhimurium in Cox white Swiss male mice; conditions: for IN VIVO mutants test/mutants control: s.c.
# Protocol: Cox white Swiss male mice 25-30 grams were used in all in vivo tests.
# A. Drug Administration: Appropriate solvents were used where applicable with a solvent control run within each test. The compounds to be tested were given either subcutaneously along the backbone of the mouse (0.1 ml.) or by oral gavage (0.5 ml.) B. Inoculation Technique: The histidine- cultures G46, C209, C3076, and D3056 used as the TA15 series have lost pathogenicity to mice because of absence or decrease in the lipopolysaccharide coat. The organisms were grown to stationary phase, then diluted with normal saline to give an inoculum near 1×10^8 organisms per milliliter. The abdominal area of the drug-treated mouse was swabbed with alcohol and two milliliters of bacterial culture were injected into the abdominal cavity of the mouse. The mice were returned to their cages for 3-4 hours.
# C. Autopsy and Recovery: The mice were sacrificed individually by cervical dislocation prior to each autopsy. The abdominal areas were soaked with ethanol. The peritoneum was bared and 2.5 ml. of sterile normal saline was injected into the peritoneal cavity using a sterile (3-ml. plastic syringe with a 20-gauge needle. After insertion, the needle is turned bevel up and the saline was expelled into the cavity; while the needle remains through the peritoneum, keeping the point of the needle in sight pressed against the peritoneal wall, the abdomen of the mouse was massaged to mix contents. The saline wash was removed from the abdominal cavity back into the syringe. The needle was removed and the contents expelled into an appropriately marked tube and iced 4° C.
# D. Dilution and Plating: One-ml. samples were plated at 10° dilution on all mice to determine revertants (histidine+).
# A one-milliliter sample from the untreated dilutions from control animals is plated 10^-6, 10^-7, and 10^-8 dilutions with excess histidine to determine mutable population (histidine-).
# The results are recorded as mutants test/mutants control.
# [3] = 300 mg/kg, MT/MC of 3 would indicate mutagenic potential
smiles,measurement,setting,value
Cn1cnc([N+](=O)[O-])c1Sc1ncnc2nc[nH]c12 [Azathioprine],IN VITRO QUALITATIVE ACTIVITY,[1],N
same,IN VIVO mutants test/mutants control,[2]; 3 mg/kg,1.03
same,IN VIVO mutants test/mutants control,[2]; 30 mg/kg,1.96
same,IN VIVO mutants test/mutants control,[2]; [3],5.93
O=P1(N(CCCl)CCCl)NCCCO1 (stereo not drawn) [Cyclophosphamide],IN VITRO QUALITATIVE ACTIVITY,[1],N
same,IN VIVO mutants test/mutants control,[2]; 3 mg/kg,1.16
same,IN VIVO mutants test/mutants control,[2]; 30 mg/kg,1.30
same,IN VIVO mutants test/mutants control,[2]; [3],TOXIC
same,toxicity to the animals,[2]; high levels,toxic to the animals at high levels
